The values below are quoted from earlier work in patent US11439626B2 (Icahn School of Medicine at Mount Sinai, priority 2019, dated 2022).

One data set concerns patients with ALS. The following applies: cited from earlier work.
For data set [1] the following is noted: cited from earlier work.

Consider `Nc1nc2ccc(OC(F)(F)F)cc2s1` [riluzole, 2-Amino-6-(trifluoromethoxy)benzothiazole], for which the “survival compared to placebo” value with patients with ALS (50 mg/day, ALS patients) is on record as “not statistically different from placebo”. Further, in the data set on patients with ALS (100 mg/day (50 mg twice daily), ALS patients), the “survival rate compared to placebo” value is listed as “statistically significant survival rate”. Moreover, the “survival rates compared to the dose of 100 mg/day” value with patients with ALS (200 mg/day, ALS patients) is “did not have improved survival rates”. Further, the tolerability result with patients with ALS (doses of up to 100 mg twice daily, dose escalation study) was “well tolerated”. Further, in data set [1] (population estimate (THETA)), the Ka is 5 h⁻¹. The “V/F Inter-subject variability” value in data set [1] (variability parameter (ETA)) was 0.352.
